Our source for the IC50 values is article PMC5217372, “Activation of SsoPK4, an Archaeal eIF2α Kinase Homolog, by Oxidized CoA” (Proteomes, 2015).

As a reminder, the IC50 is the concentration that gives 50% inhibition.

The target in the assay is T1, rSsoPK4(284–635) (Saccharolobus solfataricus, UniProt Q97U41).
T1 construct: gene SSO3182; residues 284–635 (catalytic and part of central helical repeat domain), N-terminal S-tag, C-terminal 33-residue fusion domain with polyhistidine motif, pET-29b, expressed in E. coli
T1 sequence (Q97U41 284-635): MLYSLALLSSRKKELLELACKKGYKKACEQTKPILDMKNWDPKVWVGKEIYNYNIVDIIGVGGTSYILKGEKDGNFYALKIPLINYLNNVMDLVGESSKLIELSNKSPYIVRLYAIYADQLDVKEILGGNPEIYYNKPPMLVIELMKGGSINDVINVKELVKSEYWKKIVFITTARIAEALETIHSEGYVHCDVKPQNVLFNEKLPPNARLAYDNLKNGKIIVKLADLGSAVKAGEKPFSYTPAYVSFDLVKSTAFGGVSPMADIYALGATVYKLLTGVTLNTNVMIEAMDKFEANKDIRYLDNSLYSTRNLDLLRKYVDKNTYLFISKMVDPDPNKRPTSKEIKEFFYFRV
The assay is described as follows: Filter paper [γ-32P]ATP kinase assay with MBP as phosphoacceptor, ATP routinely 100 µM, 5 mM MgCl2 and 5 mM MnCl2, 50 mM MOPS pH 7.0, 65 °C, in the presence of nucleotide effectors. The format is biochemical. The procedure: Protein kinase activity was routinely assayed by the filter paper method of Corbin and Reimann as modified by Lower and Kennelly. The final volume of the assays was typically 50 μL. The quantity of rSsoPK4 assayed ranged from 0.1 to 5.0 µg. Both MgCl2 and MnCl2 were included at a final concentration of 5 mM each. The final concentration of [γ-^32P]ATP was 100 μM. The specific activity of the [γ-^32P]ATP generally ranged from 2 to 5 × 10^15 cpm/mol. Phosphoacceptor proteins were generally present at a concentration of 0.5–1.0 µg/µL. The assay mixture was typically incubated for a period of 30 min to one hour at 65 °C in 50 mM MOPS pH 7.0. On occasion, the proteins within the assay mixture were resolved by SDS-PAGE in order to identify the specific polypeptides that were phosphorylated. Radiolabeled species were visualized using an Instant Imager from Packard (Downers Grove, IL, USA).

Each structure is given as a SMILES string.

For `Nc1ncnc2c1ncn2[C@@H]1O[C@H](COP(=O)(O)OS(=O)(=O)O)[C@@H](O)[C@H]1O` [Adenosine phosphosulfate, adenosine 5'-phosphosulfate], the IC50 worked out at 190 µM.
